Measured values reported in patent US20130252890A1, “6,7-DIHYDRO-5H-BENZO[7]ANNULENE DERIVATIVES, PROCESS FOR PREPARATION THEREOF, PHARMACEUTICAL PREPARATIONS COMPRISING THEM, AND THE USE THEREOF FOR PRODUCTION OF MEDICAMENTS” (BAYER INTELLECTUAL PROPERTY GMBH, priority 2010, published 2013).

The chains behind the UniProt entries cited, without tags or fusion partners.
UniProt P03372, whole entry: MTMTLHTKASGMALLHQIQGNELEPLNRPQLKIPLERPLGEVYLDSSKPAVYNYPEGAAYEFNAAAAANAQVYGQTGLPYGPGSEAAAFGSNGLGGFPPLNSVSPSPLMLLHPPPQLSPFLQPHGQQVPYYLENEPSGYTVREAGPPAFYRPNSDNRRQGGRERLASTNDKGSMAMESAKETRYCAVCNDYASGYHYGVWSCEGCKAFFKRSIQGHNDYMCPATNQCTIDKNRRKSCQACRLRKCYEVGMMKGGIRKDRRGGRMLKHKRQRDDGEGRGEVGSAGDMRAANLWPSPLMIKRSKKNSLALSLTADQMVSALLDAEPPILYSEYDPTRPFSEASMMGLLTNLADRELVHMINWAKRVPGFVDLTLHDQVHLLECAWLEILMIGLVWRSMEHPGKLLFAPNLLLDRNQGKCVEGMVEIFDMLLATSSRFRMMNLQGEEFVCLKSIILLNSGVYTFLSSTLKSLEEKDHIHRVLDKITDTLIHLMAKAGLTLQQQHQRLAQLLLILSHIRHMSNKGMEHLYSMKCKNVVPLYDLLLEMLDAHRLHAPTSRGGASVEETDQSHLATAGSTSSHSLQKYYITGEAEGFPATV

Target: oestrogen receptor (ER) (Homo sapiens, UniProt P03372)
Assay: Anti-oestrogenic action in MVLN cells (inhibition of estradiol-induced luciferase)
Format: cell-based
Conditions: read-out: Antioestrogenic action in vitro: MVLN transactivation antagonism IC50, inhibition of estradiol-induced luciferase signal, value of Ex. 44 is a mean value
From the text: The anti-oestrogenic action of the claimed pharmacological compounds was investigated in so-called MVLN cells in vitro. MVLN cells are derivatives of the hormone-responsive MCF7 breast cancer cells known by a person skilled in the art. These MVLN cells express, along with the functional oestrogen receptor (ER), a reporter construct, which under ER-activation expresses luciferase. Determination of the activity of the induced luciferase permits a direct conclusion on the oestrogen properties of substances. To investigate the anti-oestrogenic properties of the pharmacological compounds, they were investigated in the presence of oestrogen for their potential for inhibiting the luciferase signal induced by estradiol. The claimed pharmacological test substances were investigated in MVLN cells for their anti-oestrogenic potential, as described (see Table 2).

Q: Which IC50 does the source give for `O=S(=O)(CCCN(CCCCCCC1=C(c2ccc(F)c(F)c2)CCCc2cc(O)ccc21)C1CC1)CCCC(F)(F)C(F)(F)F` here?
A: The IC50 was 46 nM.
